Shown are actives, neighbours in structure and some others; about 16% of the full set was active somewhere.
uPA generation = cell surface uPA generation inhibition; cell surface uPA generation assay, qHTS; Potency, µM (series often up to 38.3 µM), hits mostly inhibitors; 0.31% of 330,000 active; active means well fitted inhibition curve with a large enough effect; inconclusive means small, poorly fitted or top-dose-only effect; inactive means no such curve, though single readings can be large or run the other way; tested in mouse RAW 264.7 cells; further: nearly all actives have a fitted effect of over 55% in size
miR-21 reporter = miR-21 reporter, rising signal | 340,000 tested, under 10 active | AID 2288 | HeLa miR-21 FLuc reporter, luciferase, 48 h | Potency, µM (titrated, usually from 38.3 µM); active = well fitted rising curve with a large enough effect; inconclusive = small, poorly fitted or top-dose-only effect; inactive = no such curve, though single readings can be large or run the other way;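 further: miR-21 action dims this reporter so a rising signal means less miR-21 action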
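Luminescence from a firefly luciferase reporter carrying a miR-21 binding site downstream, stably expressed under a CMV promoter in HeLa cells that make miR-21 endogenously, reports miRNA modulation after 48 h compound exposure up to approximately 40uM final.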
DT40 TDP1 CPT = growth inhibition of DT40 Tdp1-/-;hTDP1 cells with camptothecin (screen for TDP1 inhibitors) | chicken DT40 Tdp1-/-;hTDP1 cells + 20 nM CPT, ATP luminescence, 48 h | Potency, µM (highest dose often 46.2 µM), most hits filed as inhibitors | 12% of 420,000 active; further: nearly all actives have a fitted effect of over 55% in size
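Chicken DT40 Tdp1-/- cells complemented with human TDP1, 400 cells/well, exposed to compounds plus 20 nM camptothecin for at least 48 h at 37 C; viability read as ATP content by CellTiter-Glo luminescence.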
TDP1 block = TDP1 (human) enzyme inhibition; Q9NUW8; recombinant TDP1, AlphaScreen DNA substrate cleavage; Potency, µM (top dose mostly 130 µM), usual class: inhibitors; 0.28% of 350,000 active; further: nearly all actives have a fitted effect of over 40% in size
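Recombinant E. coli-expressed Tdp1 (1 nM) preincubated with compound 15 min at RT, then 5'-biotin/3'-phosphotyrosine-FITC DNA substrate (15 nM) added for 5 min. AlphaScreen beads (10 ug/ml) added, 10 min RT; tyrosine-FITC cleavage read as signal loss.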
DT40 TDP1 no CPT = qHTS for Inhibitors of human tyrosyl-DNA phosphodiesterase 1 (TDP1): qHTS in cells in absence of CPT; DT40 Tdp1-/- hTDP1 cells, no CPT, ATP luminescence, 48 h; Potency, µM (top dose mostly 46.2 µM), hits mostly inhibitors; 15% of 420,000 active; further: nearly all actives have a fitted effect of over 55% in size
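Stably hTDP1-transfected Tdp1-null chicken DT40 cells were treated with library compounds minus camptothecin and grown for at least 48 hr at 37 °C, after which cellular ATP was quantified by luminescence.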
Each line names hits and unclear results; the compound was inactive in the other large screens. Unless noted, the call rests on the fitted dose curve; in most records, active means well fitted curve in the direction sought with a large enough effect; inconclusive means small, poorly fitted or top-dose-only effect, or another doubt; inactive means no such curve, though single readings can be large; an effect the other way counts as inactive or inconclusive.

CCOc1ccc(NCc2cccn2-c2nnc(N3CCC(C(=O)NCCCN4CCCCC4CC)CC3)s2)cc1 (stereo not drawn)	uPA generation inconclusive, DT40 TDP1 CPT inconclusive, DT40 TDP1 no CPT inconclusive
CCOc1ccc(NCc2cccn2-c2nnc(N3CCC(C(=O)NCCOC)CC3)s2)cc1	DT40 TDP1 CPT inconclusive, DT40 TDP1 no CPT inconclusive (no result: uPA generation)
Cc1ccc(NCc2cccn2-c2nnc(N3CCC(C(=O)NCCc4ccc(Cl)cc4)CC3)s2)cc1	DT40 TDP1 CPT inconclusive, DT40 TDP1 no CPT 13µM (no result: uPA generation)
O=C(O)CNC(=O)c1ccc(CO)o1	none (no result: uPA generation, miR-21 reporter, DT40 TDP1 CPT, DT40 TDP1 no CPT)
COc1cc(C2C(C(C)=O)=C(C)Nc3ncnn32)ccc1O (stereo not drawn)	none
CCCN=C1CC(C)(C)CC(=O)/C1=C(/O)CCCN1C(=O)c2ccccc2C1=O	none
CNC(=O)c1ccsc1NC(=O)c1coc2ccccc2c1=O	DT40 TDP1 CPT inconclusive, DT40 TDP1 no CPT 18.4µM (no result: TDP1 block)
O=C(Nc1ccc2c(c1)OCCO2)c1coc2ccccc2c1=O	none
CC(C)(C)C1CCC2(CC1)C(C#N)=C(SCC(=O)Nc1ccccc1)NC(=O)C2C#N (stereo not drawn)	DT40 TDP1 CPT 16.4µM, DT40 TDP1 no CPT inconclusive
N#CC1=C(SCC(=O)c2cc3ccccc3oc2=O)NC(=O)C(C#N)C12CCCC2 (stereo not drawn)	DT40 TDP1 no CPT inconclusive
C(=Nc1ccc(/C=C/c2ccnc3ccccc23)cc1)c1ccc2c(c1)OCO2	DT40 TDP1 CPT inconclusive, DT40 TDP1 no CPT 17.8µM (no result: uPA generation, miR-21 reporter, TDP1 block)
C(=Nc1ccc(/C=C/c2ccnc3ccccc23)cc1)c1ccco1	DT40 TDP1 CPT 15.8µM, DT40 TDP1 no CPT 12.6µM (no result: uPA generation, miR-21 reporter, TDP1 block)
C(=Nc1ccc(/C=C/c2ccnc3ccccc23)cc1)c1cccs1	DT40 TDP1 CPT inconclusive, DT40 TDP1 no CPT 12.6µM (no result: uPA generation, miR-21 reporter, TDP1 block)
C=CCn1c(/N=C/c2ccc3c(c2)OCO3)nc2ccccc21	none
Cc1cccc2c1cnn2C(=O)Nc1ccc(Br)cc1F	none (no result: TDP1 block)
CCC/C=C(\CCC)C(NC(=O)OCC(C)C)c1ccccc1 (stereo not drawn)	none (no result: uPA generation, miR-21 reporter, DT40 TDP1 CPT, DT40 TDP1 no CPT)
CCOC(=O)c1c(C)n(C)c2ccc(OC)c(NC(=O)CN3CCC(C(=O)OCC)CC3)c12	DT40 TDP1 CPT inconclusive, DT40 TDP1 no CPT inconclusive
NS(=O)(=O)c1ccc(NNC(=O)c2ccccc2)cc1	none (no result: TDP1 block)
O=C(NNc1cc(Br)c(O)c(Br)c1)c1ccccc1	DT40 TDP1 CPT inconclusive, DT40 TDP1 no CPT 18.4µM
Cc1ccc(-c2nc3ccc(Br)cn3c2Cc2cccc(Cl)c2)cc1	DT40 TDP1 CPT 14.6µM, DT40 TDP1 no CPT 9.2µM (no result: uPA generation, miR-21 reporter, TDP1 block)
COc1ccc(-c2nc3ccc(Br)cn3c2Cc2cccc(Cl)c2)cc1OC	DT40 TDP1 CPT inconclusive, DT40 TDP1 no CPT 20.6µM (no result: uPA generation, miR-21 reporter, TDP1 block)
COc1ccccc1Cc1c(-c2ccc(OC)c(OC)c2)nc2ccc(Br)cn12	DT40 TDP1 CPT 18.4µM, DT40 TDP1 no CPT 5.8µM (no result: uPA generation, miR-21 reporter, TDP1 block)
Fc1ccc(-c2nc3ccc(Cl)cn3c2Cc2cccc(F)c2)cc1	DT40 TDP1 CPT inconclusive, DT40 TDP1 no CPT 23.1µM (no result: uPA generation, miR-21 reporter, TDP1 block)
Cc1cc(NC(=O)CSc2n[nH]c(N)n2)no1	none
Cc1ccc(-c2nc3ccc(Br)cn3c2Cc2ccccc2)cc1	DT40 TDP1 CPT 14.6µM, DT40 TDP1 no CPT inconclusive (no result: uPA generation, miR-21 reporter, TDP1 block)
Brc1ccc2nc(-c3ccccc3)c(Cc3ccsc3)n2c1	DT40 TDP1 CPT 25.9µM, DT40 TDP1 no CPT 23.1µM (no result: uPA generation, miR-21 reporter, TDP1 block)
N#Cc1ccc(-c2nc3ccc(Br)cn3c2Cc2cccc(Cl)c2)cc1	DT40 TDP1 CPT inconclusive, DT40 TDP1 no CPT 20.6µM (no result: uPA generation, miR-21 reporter, TDP1 block)
Cc1ccc(-c2nc3ccc(Cl)cn3c2Cc2cccc(Cl)c2)cc1	DT40 TDP1 CPT inconclusive, DT40 TDP1 no CPT 16.4µM (no result: uPA generation, miR-21 reporter, TDP1 block)
Clc1ccc2nc(-c3ccccc3)c(Cc3ccsc3)n2c1	DT40 TDP1 no CPT inconclusive (no result: uPA generation, miR-21 reporter, TDP1 block)
COc1ccccc1-c1coc2c(CN3CCC(C)CC3)c(O)ccc2c1=O	DT40 TDP1 no CPT inconclusive (no result: TDP1 block)
Cn1c(COc2ccc(Cl)cc2)nnc1SCC(=O)NC1CCCCC1	none (no result: uPA generation, miR-21 reporter, TDP1 block)
O=[N+]([O-])c1cccc(N=Nc2ccc(O)cc2O)c1	DT40 TDP1 CPT 3.26µM, DT40 TDP1 no CPT 5.17µM (no result: miR-21 reporter, TDP1 block)
O=[N+]([O-])c1cccc(N=NNc2cccc([N+](=O)[O-])c2)c1	DT40 TDP1 CPT inconclusive, DT40 TDP1 no CPT 18.4µM (no result: uPA generation, miR-21 reporter, TDP1 block)
COc1cccc(CN2CC(C(=O)NCCc3ccc(C)s3)CCC2=O)c1 (stereo not drawn)	none
O=C(/C(=C/O)N=Nc1ccc(Cl)cc1)c1ccncc1	DT40 TDP1 CPT 14.6µM, DT40 TDP1 no CPT 25.9µM
